Data taken from patent US20250135016A1, “MOLECULAR LOGIC GATES FOR CONTROLLED MATERIAL DEGRADATION” (University of Washington, priority 2016, published 2025).

Columns and labels:
[1] = Logic-based hydrogel degradation in response to sequential stimuli (supernatant fluorescence); settings: all eight input combinations of reductant, MMP enzyme and light; endpoint supernatant fluorescence
[2] = system: hS5 bone marrow-derived stromal cells; test: Hydrogel-encapsulated cell release studies; assay type: cell-based, human; settings: R gels BME 0.25 mM 45 minutes; P gels UV 10 minutes; E gels MMP-8 0.20 nM 60 minutes
Method: Four human bone marrow-derived stromal cell lines [hS5], including one non-fluorescent control and three each stably transfected to express a single fluorescent protein [mCherry, green fluorescent protein (GFP), or blue fluorescent protein (BFP)], were cultured at 37° C. in Roswell Park Memorial Institute medium 1640 (RPMI-1640, Corning) supplemented with 10% FBS and 1% PS.
Hydrogels were formed sandwiched between an azide-functional glass slide and a Rain-X®-treated glass slide separated by two 0.005″ thick silicone spacers (McMaster-Carr). A precursor solution containing PEG-tetraBCN (Method S22, 2 mM), the P crosslinker (Method S7, 4 mM), and hS5-GFP^+ (40×10^6 cells mL^−1) was injected between the silicone spacers and reacted for one hour. […]
Following each degradative step, cells that remained encapsulated in the intact gel were imaged using fluorescent confocal microscopy. Three channels—one for each fluorescent protein—were simultaneously monitored. For visualization, fluorescence corresponding to mCherry (excitation 587 nm, emission 626-703 nm), GFP (excitation 489 nm, emission 499-570 nm), and BFP (excitation 405 nm, emission 413-494 nm) were false colored as red, green, and blue, respectively. […]
Gels were degraded and the viability of the released cells was assessed. […]

With “N3—(CH2)3CONH-RGC(N3—(CH2)3CONH-RGC-NH2)—NH2” the Hydrogel degradation response [1] was “degrading only when the programmed cue was present” and the “Gel degradation for viability studies” value [2] was “complete hydrogel degradation”.
